Assay results from patent US20260382572A1, “TREATMENT OF FRONTOTEMPORAL DEMENTIA OR FRONTOTEMPORAL LOBAR DEMENTIA” (published 2026).

Test system: not listed separately
Assay: PAMPA-BBB in vitro blood-brain barrier permeation assay
Details: printed in brackets below Pe
From the text: The in vitro blood-brain barrier permeation assay (PAMPA-BBB) was used for predicting the brain penetration of compounds, following a described method [Herrera-Arozamena, Clara et al. “Resveratrol-Based MTDLs to Stimulate Defensive and Regenerative Pathways and Block Early Events in Neurodegenerative Cascades.” Journal of medicinal chemistry vol. 65, 6 (2022): 4727-4751. doi:10.1021/acs.jmedchem.lc01883]. The results are given as the mean±SD. In each experiment, 11 quality control standards of known BBB permeability were included to validate the analysis set.

Row | SMILES | PAMPA-BBB classification (cns+)
1 | Clc1ccc2[nH]c(-c3c[nH]c4ccc(Cl)cc34)cc2c1 | (cns+)
2 | c1ccc2c(c1)CC(c1c[nH]c3ccccc13)N2 (centres unmarked) | (cns+)
3 | FC(F)(F)c1ccc2c(c1)CC(c1c[nH]c3ccc(C(F)(F)F)cc13)N2 (centres unmarked) | (cns+)
4 | COc1ccc2[nH]c(-c3c[nH]c4ccc(OC)cc34)cc2c1 | (cns+)
5 | C#CCN1c2ccc(OC)cc2CC1c1cn(CC#C)c2ccc(OC)cc12 (centres unmarked) | (cns+)
6 | Clc1ccc2c(c1)CC(c1c[nH]c3ccc(Cl)cc13)N2 (centres unmarked) | (cns+)
7 | COc1cccc2c1NC(c1c[nH]c3c(OC)cccc13)C2 (centres unmarked) | (cns+)

Test system: hyperphosphorylated tau in primary cultures of neurons expressing human tau with P301L mutation
Assay: Hyperphosphorylated tau (AT8) in primary neuronal cultures treated with AAV-hTauP301L
Details: added every other day for 8 days, compound 1 at 30 μM
From the text: FIG. 6. Compound 1 reduces hyperphosphorylated tau species and tau seeding in vitro. Compound 1 reduces hyperphosphorylated tau levels (AT8) in primary neuronal cultures of mice after 8 days of AVV-hTauP301L treatment. Dimethyl fumarate was used as a positive control (DMF). (A) Representative images, AT8 is shown in green and Map2, marker of neurons, is shown in white. […] Compound 1 reduced tau seeding in HEK-293 tau FRET biosensor measured by flow cytometer (C). Tg4510 mouse brain homogenate was used as aggregant stimuli. […] Data represent mean±SEM.
Immunofluorescence labelling in in vitro and in vivo samples was performed as described in [Luengo, Enrique et al. “Implication of type 4 NADPH oxidase (NOX4) in tauopathy.” Redox biology vol. 49 (2022): 102210. doi:10.1016/j.redox.2021.102210].
Example 2.4. Compound 1 reduces levels of pathological hyperphosphorylated tau in primary cultures of neurons expressing human tau protein with P301L mutation. At day 10 after culture, neurons were treated with PBS or AAV-hTauP301L, and thereafter compound 1 (30 μM) was added every other day for 8 days. At the end of the experiment (day 18), neurons were fixed in 2% paraformaldehyde (Sigma-Aldrich) for 15 minutes. Thereafter, hyperphosphorylated tau levels were evaluated by immunofluorescence using AT8 antibody (FIG. 6A). […]

Row | SMILES | AT8 intensity levels
8 | COC(=O)/C=C/C(=O)OC | reduced AT8 intensity levels
